Earlier results, collected in paper PMC3141299 (Macromolecular bioscience, 2010).

Settings: treated for 1 h in gastric fluid; ref 2 (Yamagata et al.)

insulin
insulin remaining intact / preserved after treatment in gastric fluid: 20%
